Laboratory results taken from PMC11004252.

Molecular target: phospho-Ser 2 carboxy-terminal domain (CTD) RNA polymerase II (human (endogenous in hSAECs)) (UniProt P24928)
Test: proximity ligation; Duolink in situ PLA of BRD4 and pSer2 Pol II, hSAECs transfected with FLAG-BRD4 lentivirus, fixed, RSV infected (MOI 1, 24 h)

fold induction of PLA complexes, RSV against mock: 19 fold
percent of cells with PLA foci (RSV infected): > 80 % of cells
Substance: FLAG-BRD4 (from UniProt O60885 1-1362) (natural protein; phospho-Ser 2 of the carboxy-terminal domain (CTD); other documents disagree on this pair)
